Experimental data taken from patent publication US20090176841A1, “NOVEL 6-5 SYSTEM BICYCLIC HE[…] ITS PHAR[…]” (Sanwa Kagaku Kenkyusho Co., Ltd., priority 2006, published 2009).

Sequences of proteins named here, by UniProt entry; tags and fusion partners are left off. Residues count along the entry.
UniProt P10828, 244-461 limits assumed: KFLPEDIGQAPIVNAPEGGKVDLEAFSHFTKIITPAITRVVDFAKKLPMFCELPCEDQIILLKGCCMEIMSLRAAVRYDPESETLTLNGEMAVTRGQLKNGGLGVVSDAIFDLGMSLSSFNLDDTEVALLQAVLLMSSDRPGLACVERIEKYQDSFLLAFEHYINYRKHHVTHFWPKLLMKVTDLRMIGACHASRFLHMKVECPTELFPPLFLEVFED
UniProt P10827, 190-410 isoform 2 limits assumed: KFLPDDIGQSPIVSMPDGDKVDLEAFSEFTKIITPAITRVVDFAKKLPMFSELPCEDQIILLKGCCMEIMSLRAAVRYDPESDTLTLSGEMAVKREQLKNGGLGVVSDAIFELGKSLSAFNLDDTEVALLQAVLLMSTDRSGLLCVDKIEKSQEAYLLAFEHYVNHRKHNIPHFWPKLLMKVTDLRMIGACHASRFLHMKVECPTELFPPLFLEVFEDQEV

Key:
[1] = molecular target: recombinant human TRβ (Homo sapiens, UniProt P10828)
[2] = molecular target: recombinant human TRα (Homo sapiens, UniProt P10827)

| Structure (SMILES) | IC50 [1] [nM] | IC50 [2] [nM] |
| --- | --- | --- |
| CCOC(=O)C(=O)Nc1ccc2c(ccn2Cc2ccc(O)c(C(C)C)c2)c1 | 350 | 980 |
| Cc1ccc(NC(=O)CC(=O)O)c2c1N(Cc1ccc(O)c(C(C)C)c1)C(C)C2 (racemic) | 610 | > 10000 |
